Binding of CDR-mutated scFvs to a peptide of the spike HR2 region

From the AlphaSeq antibody data of Engelhart et al. 2022 (doi:10.1038/s41597-022-01779-4), copy in the FLAb collection.

All variants were tested on one target, the spike HR2 peptide PDVDLGDISGINAS (SARS-CoV-2).

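AAYL50 was designed without a model: most single CDR substitutions and a random sample of double and triple ones. The scFvs were displayed on barcoded MATa yeast, the peptide on MATalpha yeast. Pairs that bind mate more often; barcode pairs of the diploids are counted by sequencing. The ratio of observed to expected reads was calibrated, replicate by replicate, on BCL2-family standards whose Kd was known from biolayer interferometry. The assay was run in three technical replicates.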

Ab-14 is the parent antibody, in scFv form: VH, then three GGGGS repeats, then VL. The heavy chain is unchanged in all variants.
VH: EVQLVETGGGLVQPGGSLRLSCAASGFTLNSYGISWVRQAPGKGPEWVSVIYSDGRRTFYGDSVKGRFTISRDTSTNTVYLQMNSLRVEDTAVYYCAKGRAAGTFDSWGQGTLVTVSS
VL: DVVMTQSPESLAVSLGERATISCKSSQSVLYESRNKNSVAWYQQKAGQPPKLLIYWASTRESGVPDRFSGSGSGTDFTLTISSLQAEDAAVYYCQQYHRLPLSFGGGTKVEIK

Each variant is given by its three light chain CDRs, as the data file delimits them; those of the parent are KSSQSVLYESRNKNSVA, WASTRES, QQYHRLPLS.
The read-out is the apparent dissociation constant on a log10 scale (nM): the lower, the stronger.
Averages over replicates are reported, and they cover detected replicates only.
A pair that was not seen in any replicate is written "not detected"; this usually means weak binding, but a binder can also be missed.
For reference, the parent read 0.65 as the reference entry and 1.68 as a member of this library.

| mean log10 Kd (nM) | seen in | CDR-L1 | CDR-L2 | CDR-L3 |
|---|---|---|---|---|
| not detected | 0/3 | KSSQSVLYESRNKMSVA | WASTRES | QQYKRLPHS |
| 1.85 | 3/3 | KGSQSHLYESRSKNSVA | WASTRES | QQYHRLPLS |
| 4.96 | 2/3 | KSSQSVLYESRNKNSVF | WASTRES | QQYHRLELS |
| 2.47 | 3/3 | MSSQSVLYESRNKNSVA | WASTRES | QQRHRFPLS |
| 1.50 | 3/3 | KSSNSWLYESRNKNSVA | WASTRES | QQYHRLPLD |
| 2.47 | 3/3 | KSSQSVLYNSRNKNSVA | WASWRES | QQYHMLPLS |
| 1.68 | 3/3 | KSNQSVLIESRNKNSVA | WASTRES | RQYHRLPLS |
| 4.18 | 1/3 | KSHQSVLYESRNKNSVA | WASTRNS | QQKHRLPLS |
| not detected | 0/3 | KSSQSVLYESRNKNSVR | WTSTRES | QQYHRGPLS |
| not detected | 0/3 | KSSQSVLYTSRNKNRVA | WASTRES | QQYHFLPLS |
| 2.18 | 3/3 | KSSQSVLYESRWKNSVA | LASTRFS | QQYHRLPLS |
| not detected | 0/3 | KPSQSVLYEIRNKNSVA | WASTRES | QQYHRLPES |
| not detected | 0/3 | KSSQSVLYEIRNKNSVA | WASTAES | QAYHRLPLS |
| 3.62 | 3/3 | KSSPSVLAESRNKNSVA | WASTRES | QQYIRLPLS |
| 2.68 | 1/3 | KSSLSVLYEWRNKNSVA | WASTRES | QKYHRLPLS |
| not detected | 0/3 | KSSQSVLYELRNKNSVA | WASTRES | HQCHRLPLS |
| not detected | 0/3 | KSSQSVLYESRKKNSVN | WCSTRES | QQYHRLPLS |
| not detected | 0/3 | KSSQSVLYESRNKNSVA | WASTRES | QQNHRLPQS |
| not detected | 0/3 | KSSQSVLYEFRNKNSVA | WASFRES | QQYHRLPLS |
| 1.41 | 3/3 | KWSQSVCYEARNKNSVA | WASTRES | QQYHRLPLS |
| 3.27 | 1/3 | KWSQSVLYESRNKNSVA | WASTRES | QYYHRKPLS |
| 3.99 | 3/3 | KSSQDVLYESRNKNSWA | WASTRES | IQYHRLPLS |
| 0.64 | 3/3 | KSSQSVLYERTNKNSVA | WASTRES | QQYHRLPLS |
| 0.90 | 3/3 | KSSQSVLYESHNVNSVA | WTSTRES | QQYHRLPLS |
| 4.92 | 2/3 | KSSLYVLYESRNKKSVA | WASTRES | QQYHRLPLS |
| 3.39 | 2/3 | KSSQSVLYSSRNKNSVA | WACTRES | QQYHRLPYS |
| 1.44 | 3/3 | KSSQSFLFESRNKNSVA | WASTRES | QQYHNLPLS |
| not detected | 0/3 | KSSQSVLYESRNKNVVA | WASTRTS | IQYHRLPLS |
| 5.51 | 1/3 | KSSQSVLYESRNKNSVY | WASTRES | QQIHRLPLT |
| 1.50 | 3/3 | KSSQSVHYESRNKNSVA | WASIRES | QQYHRQPLS |
| 3.71 | 2/3 | KESQSVLYESRNKNSVA | WASTRES | QYYHQLPLS |
| not detected | 0/3 | KSSQSVLYESRNKNSHA | WASTRES | QQYHRLPWS |
| 3.42 | 1/3 | NSSQSVLYESRNKNSVA | WASTRES | QQYYRLPWS |
| 2.60 | 3/3 | KSSESVLYENRNKNSVA | WASTRKS | QQYHRLPLS |
| not detected | 0/3 | KSSQSVLYESGNKNSVA | WASTREE | RQYHRLPLS |
| 4.45 | 2/3 | KSSQEVLYESRNCNSVA | WASTRES | QQYHRLNLS |
| 1.39 | 3/3 | KSTQSMLYESRNKNSVA | WASTRES | QNYHRLPLS |
| not detected | 0/3 | PSSQSVLYESRNKNSVA | WASYREG | QQYHRLPLS |
| 1.41 | 3/3 | KSSDSVLYESRNDNSVA | WASTRVS | QQYHRLPLS |
| 0.03 | 3/3 | KSSDGVLYESRNKNSVA | SASTRES | QQYHRLPLS |
| 2.56 | 3/3 | KSSQSVLYESRNKNSVA | WAKTRES | QQYHRCILS |
| 4.96 | 2/3 | KSSQSVFYESRNKNSVE | WARTRES | QQYHRLPLS |
| 1.65 | 3/3 | KSSQSVLYESRNKNAVA | WARTRES | QQYHRLELS |
| 1.21 | 3/3 | KSSQSVLYEKRNKNSVA | WASTRES | QQYHRLPLW |
| not detected | 0/3 | KSSQSVLYESRHKNSVA | WASTRES | QQYHRLLNS |
| not detected | 0/3 | KSSQSVLYESRSKNSVA | WASTRRS | QQDHRLPLS |
| not detected | 0/3 | KSTQSVLYESRDKNSVA | WASTRES | QQYHRLPLS |
| not detected | 0/3 | KSSQSVLYEKRNKNSMA | WASTRES | QFYHRLPLS |
| 1.15 | 3/3 | KSSQSVLYPSRNKNVVA | WASTRES | QQYHRLPLS |
| 2.95 | 1/3 | QSSQSVLYESRNKNSVA | WEHTRES | QQYHRLPLS |
| not detected | 0/3 | KSSQSVLYESRVKNSKA | WASTRES | QQYYRLPLS |
| 3.16 | 1/3 | KSSQSVLYESRNKVSVA | WASTRES | QVYHRTPLS |
| 1.95 | 3/3 | KSSQSELYCSRNANSVA | WASTRES | QQYHRLPLS |
| not detected | 0/3 | NSSQSVLYESRHKRSVA | WASTRES | QQYHRLPLS |
| 0.67 | 3/3 | KSSQSVLYESRNKNSVA | WASTREA | QQYHRLPFS |
| 1.75 | 3/3 | KSSQSVLYESTNKNSVA | WASTCES | QQYHRLPLD |
| not detected | 0/3 | DSSQSVLYESRNKNSVA | WASTLES | QQSHRLPLS |
| not detected | 0/3 | KSSQSDLYESRNKNSKA | WASTRES | QQYHVLPLS |
| 3.98 | 1/3 | KSSQSVLYESRNKNSVA | IHSTRES | GQYHRLPLS |
| 2.38 | 3/3 | KSSTSVIYESRNKNSVA | WASSRES | QQYHRLPLS |
| 2.07 | 1/3 | FSSQSVLYFSRNKNSVA | TASTRES | QQYHRLPLS |
| 4.88 | 3/3 | KSSQSVLYESRNKNSVA | WARLRES | QQYHRLPLC |
| not detected | 0/3 | KSHQSVLYESRNKHSVA | WRSTRES | QQYHRLPLS |
| not detected | 0/3 | KSSQSVLYESRNKNSVA | WAVTRES | QQYCRTPLS |
| not detected | 0/3 | KSSQSVLYESHNKGSVA | WASTMES | QQYHRLPLS |
| 2.09 | 3/3 | KCSQSVLYESRNKNSVA | WAKTRES | QQYHRIPLS |
| 4.87 | 1/3 | KSSQSVLYESRNKNSVA | WCSTDER | QQYHRLPLS |
| 3.63 | 1/3 | KSSGSVLYESRNKNSVA | WASTRES | QQFHRLPHS |
| not detected | 0/3 | KSSQSVLYESRNKNSVA | WCMTRES | QQYHRLPLS |
| not detected | 0/3 | KSSQSVLYELRNKNSVA | MASTRES | QQQHRLPLS |

Repeated from above, the 10 best binders with a signal in all replicates:

| CDR-L1 | CDR-L2 | CDR-L3 | mean log10 Kd (nM) | seen in |
|---|---|---|---|---|
| KSSDGVLYESRNKNSVA | SASTRES | QQYHRLPLS | 0.03 | 3/3 |
| KSSQSVLYERTNKNSVA | WASTRES | QQYHRLPLS | 0.64 | 3/3 |
| KSSQSVLYESRNKNSVA | WASTREA | QQYHRLPFS | 0.67 | 3/3 |
| KSSQSVLYESHNVNSVA | WTSTRES | QQYHRLPLS | 0.90 | 3/3 |
| KSSQSVLYPSRNKNVVA | WASTRES | QQYHRLPLS | 1.15 | 3/3 |
| KSSQSVLYEKRNKNSVA | WASTRES | QQYHRLPLW | 1.21 | 3/3 |
| KSTQSMLYESRNKNSVA | WASTRES | QNYHRLPLS | 1.39 | 3/3 |
| KWSQSVCYEARNKNSVA | WASTRES | QQYHRLPLS | 1.41 | 3/3 |
| KSSDSVLYESRNDNSVA | WASTRVS | QQYHRLPLS | 1.41 | 3/3 |
| KSSQSFLFESRNKNSVA | WASTRES | QQYHNLPLS | 1.44 | 3/3 |

Nonspecific signal, from three strains lacking the peptide, appeared in 18% of pairings of library AAYL50, centred on 4.19 (5% of these signals below 2.99); values are not corrected for it.